The record followed here is ChEMBL document CHEMBL2146384 (J Med Chem, 2012).

Usually IC50 stands for the concentration that inhibits the measured activity by half. A low value points to higher potency.

This assay addresses T1, Deoxyuridine 5'-triphosphate nucleotidohydrolase, mitochondrial (Homo sapiens, UniProt P33316).
T1 sequence (P33316 whole entry): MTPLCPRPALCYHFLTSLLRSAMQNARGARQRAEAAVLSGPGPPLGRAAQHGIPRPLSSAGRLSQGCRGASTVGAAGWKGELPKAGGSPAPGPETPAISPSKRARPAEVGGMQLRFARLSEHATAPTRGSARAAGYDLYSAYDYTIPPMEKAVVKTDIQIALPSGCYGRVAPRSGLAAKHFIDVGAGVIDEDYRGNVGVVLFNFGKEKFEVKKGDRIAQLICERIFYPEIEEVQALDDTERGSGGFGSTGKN
The assay can be described thus: Inhibition of human dUTPase-mediated formation of [5-3H]dUMP expressed in Escherichia coli BL21 (DE3) after 15 mins by HPLC analysis.

Consider `CC(C)(CC/C=C/Cn1ccc(=O)[nH]c1=O)NS(=O)(=O)c1cccc(OCC2CC2)c1`, for which the IC50 amounted to 0.028 µM.
